Experimental data reported in patent US20050075345A1, “Novel inhibitor compounds specific of secreted non-pancreatic human a2phospholipase of group II” (Yang Ji Chemical Company Ltd., priority 2001, published 2005).

Protein sequences, listed by entry. Tags and fused reporters are not part of them. Residues count along the entry.
UniProt P14555, 21-144 limits assumed: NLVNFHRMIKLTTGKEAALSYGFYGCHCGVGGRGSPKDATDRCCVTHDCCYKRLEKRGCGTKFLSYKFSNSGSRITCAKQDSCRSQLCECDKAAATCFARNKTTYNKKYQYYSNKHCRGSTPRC
UniProt P00592, 23-146 limits assumed: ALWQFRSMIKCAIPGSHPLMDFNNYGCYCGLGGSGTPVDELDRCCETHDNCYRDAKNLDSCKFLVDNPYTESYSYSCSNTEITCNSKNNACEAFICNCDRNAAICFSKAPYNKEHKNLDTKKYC

Legend:
[1] = test system: carrageenan-induced edema; test: Carrageenan-induced edema test in rats; details: dose of 10 mg/kg
Protocol: An in vivo activity assay was performed by a carrageenan-induced edema test in rats.
In the experimental protocol conducted, indomethacin as the reference product, or the compound No. 5, was administered intraperitoneally or orally at one hour before the injection of carrageenan into the hind leg of the rats. The volume of edema was measured at 0, 3 and 5 hours after the injection of carrageenan. The doses used were 5, 10 and 20 mg/kg for the two products tested.

[2] = target: human recombinant PLA2 (group II) (Homo sapiens, UniProt P14555); test: Fluorometric anti-PLA2 assay, human recombinant PLA2 (group II); format: biochemical; details: read-out: Anti-PLA2 activity IC50 HPLA2; measured for fluorescence with human recombinant PLA2 (group II)
Protocol: (§1) Phospholipase A2 hydrolyzes an ester linkage at the sn-2 position of glycerophospholipid and liberates fatty acids and lysophospholipids. The in vitro action of particular compounds was evaluated by the analysis of fatty acids according to the fluorometric method described in Radvanyi et al., Anal. Biochem. 1989, 177. 103-109, and by the analysis of lysophospholipids according to the UV spectrophotometric method described in Reynolds et al., Anal. Biochem. 1992, 204, 190-197.
(§2) Enzymes used were two secretory enzymes of group II (human recombinant PLA2, and PLA2 basic subunit isolated from Crotalus durissus terrificus), and a secretory enzyme of porcine pancreatic (group I) PLA2.
(§3) Regarding substrates, palmitoyl-2-(10-pyrenyl decanoyl)-sn-glycero-3-phosphatidylglycerolic acid as a fluorescent substrate was used in the fluorometric method, and the lithium salt of 1,2-bis-(dihexanylthio)-dideoxy-rac-glycero-3-phosphorylglycerol was used in the UV spectrophotometric method.
(§4) The fluorometric analysis was performed using a Perkin Elmer LS50 luminescence spectrometer in a unit dosage polystyrene cell having a size of 1 cm. The exact concentration of the fluorescent substrate was determined by UV Unicam spectrometry in a quartz cell.
(§5) PLA2 is an enzyme that hydrolyzes an ester linkage at the sn-2 position of phospholipid. […] After hydrolysis with the enzyme, fluorescence emitted by the liberated fatty acid (pyrenyl decanoic acid) complex with bovine serum albumin (BSA) is increased, and strong fluorescence emission is observed at 378 and 398 nm. The principle of the analysis is to measure a difference in fluorescence at 398 nm in order to examine the production of fatty acids liberated for a given period of time, thus determining the PLA2 activity.
Measurement of the enzymatic activity was performed in a cell containing: 960 μl of Tris buffer; 50 mM HCl (pH 7.5); 0.5 M NaCl, 1 mM EGTA; and 1 μl substrate. […]
The enzymatic activity is shown by a curve of which the original slope permits to calculate the initial velocity of the reaction. […] In the equation, S0 represents the slope of a curve in the absence of calcium (control), S the slope in the presence of calcium, V the volume (μl) of the substrate solution, and Fmax the signal of maximum fluorescence obtained at the end of the enzymatic reaction: [formula]
(§6) The residual activity in the presence of an inhibitor was evaluated by slopes obtained in the absence and presence of an inhibitor, according to the following equation: Residual activity (%)=(S−S0) in the presence of inhibitor/(S−S0) in the absence of inhibitor […]

[3] = target: porcine pancreatic PLA2 (group I) (Sus scrofa, UniProt P00592); test: Fluorometric anti-PLA2 assay, porcine pancreatic PLA2 (group I); format: biochemical; details: read-out: Anti-PLA2 activity IC50 PPLA2; measured for fluorescence with porcine pancreatic PLA2 (group I)
Protocol: as §1, §2, §3, §4, §5
Measurement of the enzymatic activity was performed in a cell containing: 960 μl of Tris buffer; 50 mM HCl (pH 7.5); 0.5 M NaCl, 1 mM EGTA; and 1 μl substrate. This mixture was stirred under reflux for one minute to permit the formation of vesicles of substrate, and then, 10 μl of 10% SAB, 10 μl of solvent (ethanol or DMSO) or inhibitor solution, 10 μl of PLA2 to a given concentration and finally 10 μl of 1 M calcium chloride (CaCl2) for initiating the activity were successively added to the mixture under stirring.
Good conditions of measurement of the enzymatic activity include saturation of the enzyme, and thus, initial concentrations used are as follows: (i) human recombinant PLA2: 0.1 μl/ml; (ii) porcine pancreatic PLA2: 0.6 μl/ml; and (iii) Crotalus durissus terrificus (CB) PLA2: 0.05 μl/ml. Mother solution containing the inhibitor was prepared at an initial concentration of 10^−2 M.
The enzymatic activity is shown by a curve of which the original slope permits to calculate the initial velocity of the reaction. The following equation permits to calculate the enzymatic activity (A; μmol) of fatty acids liberated per minute. In the equation, S0 represents the slope of a curve in the absence of calcium (control), S the slope in the presence of calcium, V the volume (μl) of the substrate solution, and Fmax the signal of maximum fluorescence obtained at the end of the enzymatic reaction: [formula]
as §6

| SMILES | inhibition of edema ([1]; intraperitoneal route, given one hour before carrageenan) [%] | inhibition of edema ([1]; oral route, at 5 hours after the injection of carrageenan) [%] | IC50 [2] [µM] | IC50 [3] [µM] |
| --- | --- | --- | --- | --- |
| CCCCCCCCCCCCCCN1CCN(C(=O)c2ccc(Cc3noc(=O)[nH]3)cc2)CC1 [Example 8, 1-[4′-(4,5-dihydro-1,2,4(4H)-5-oxo-oxadiazol-3-ylmethyl)benzoyl]-4-tetradecylpiperazine] | 73 | 65 | 9 | – |
| CCCCCCCCCCCCCCCCCCCCCCN1CCN(C(=O)c2ccc(Cc3noc(=O)[nH]3)cc2)CC1 | – | – | – | > 100 |
| CCCCCCCCCCCCCCCCN1CCN(Cc2ccc(Cc3noc(=O)[nH]3)cc2)CC1 | – | – | 10 | > 100 |
| CCCCCCCCCCCCCCCCCCCCN1CCN(C(=O)c2ccc(Cc3noc(=O)[nH]3)cc2)CC1 | – | – | – | > 100 |
| CCCCCCCCCC(CCCCCCCCC)N1CCN(C(=O)c2ccc(Cc3noc(=O)[nH]3)cc2)CC1 | – | – | 0.3 | > 100 |
| CCCCCCCCCCCCN1CCN(Cc2ccc(Cc3noc(=O)[nH]3)cc2)CC1 | – | – | > 100 | – |
| CCCCCCCCCCCCCCCCCCN1CCN(Cc2ccc(Cc3noc(=O)[nH]3)cc2)CC1 | – | – | – | > 100 |
